# Source: patent publication US20030083469A1, “Allosteric control of nuclear hormone receptors” (The Salk Institute for Biological Studies, priority 1995, published 2003)
# Biological target: T1, GST-hRXRα (Homo sapiens, UniProt P19793)
# T1 construct: made in house
# T1 sequence (P19793 1-462): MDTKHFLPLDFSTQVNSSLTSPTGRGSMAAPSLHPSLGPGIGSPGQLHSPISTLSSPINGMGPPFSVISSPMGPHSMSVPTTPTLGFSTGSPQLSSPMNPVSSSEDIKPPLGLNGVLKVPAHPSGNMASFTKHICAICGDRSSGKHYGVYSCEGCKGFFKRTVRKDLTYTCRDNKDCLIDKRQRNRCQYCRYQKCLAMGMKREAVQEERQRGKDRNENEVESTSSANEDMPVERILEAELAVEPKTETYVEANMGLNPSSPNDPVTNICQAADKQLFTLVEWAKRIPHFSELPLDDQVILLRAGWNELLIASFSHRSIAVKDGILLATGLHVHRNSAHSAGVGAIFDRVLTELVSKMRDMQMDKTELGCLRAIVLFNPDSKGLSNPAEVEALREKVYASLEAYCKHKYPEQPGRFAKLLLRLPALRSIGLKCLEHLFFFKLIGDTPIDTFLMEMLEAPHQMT
# Assay: Ligand binding assay with GST-RXR (glutathione-sepharose)
# Conditions: 50 nM [3H] LG69; 2 μM unlabeled ligand
structure (smiles),measurement,value
"CC1(C)CCC(C)(C)c2cc(C(=O)Nc3ccc(C(=O)O)cc3)ccc21 [Am580, 4-(5,6,7,8-tetrahydro-5,5,8,8-tetramethyl-2-napthamido) benzoic acid]",competition of [3H] LG69 binding to GST-RXR by unlabeled ligand,not
